Measurements published in PubChem BioAssay AID1016 (Sanford-Burnham Center for Chemical Genomics, 2008).
This is a selection; strong and weak results do not stand in their true shares. Active and inactive are the calls of the source.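 How the source made its calls: active means activation factor of 2 or more at 20 µM, a signal rise over negative controls twice the positive control's; inactive means the rest.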

Each compound was assayed on alkaline phosphatase, intestinal [Bos taurus] (assay: bovine intestinal alkaline phosphatase activators, primary screen, biochemical, bovine IAP, CDP-star luminescence (AID 1016)). Details: purified bovine IAP, 30 min, at 20 µM, hits give high values, fold of DMSO-control signal, blank-subtracted.

Which activation factor does the source give for COc1ccc(CN(CCCl)CCCl)cc1Cl here?
Its activation factor is inactive: 1.2.

With CN(C)c1cccc(C(=O)NCC2(N3CCCCC3)CCCCC2)c1 as the compound, how does the activation factor read?
Its activation factor is inactive: 1.2.

Which activation factor does the source give for CC(C)c1ccc(NC2CCN(C(=O)OC(C)(C)C)CC2)cc1 here?
The activation factor was inactive: 1.1.

With COc1ccc(NC2CCN(C(=O)OC(C)(C)C)CC2)cc1 as the compound, how does the activation factor read?
The activation factor was inactive: 1.1.

CN1CCN(CCOC(=O)C(O)(c2ccccc2)c2ccccc2)CC1 was tested. Which activation factor did it give?
Its activation factor is inactive: 1.

For O=C(NCC1(N2CCOCC2)CCCCC1)c1cc(=O)[nH]c2ccccc12, which activation factor is on record?
Its activation factor is inactive: 1.

O=C(NCC1(N2CCCCC2)CCCCC1)c1cccc([N+](=O)[O-])c1 was tested. Which activation factor did it give?
The activation factor was inactive: 0.9.

How did the activation factor turn out when N#CC1(Nc2ccccc2)CCN(CCc2ccccc2)CC1 was run?
Its activation factor is inactive: 1.

COc1ccc(NC2CCN(CCc3ccccc3)CC2)c(OC)c1 was tested. Which activation factor did it give?
Its activation factor is inactive: 1.1.

With O=C(NCC1(N2CCOCC2)CCCCC1)c1cc2ccccc2o1 as the compound, how does the activation factor read?
The activation factor was inactive: 0.9.

How did the activation factor turn out when CCOC(=O)N1CCC(Nc2ccc(OC)cc2)CC1 was run?
The activation factor was inactive: 1.

O=C(OC1CN2CCC1CC2)C1c2ccccc2Oc2ccccc21 (stereo not given) was tested. Which activation factor did it give?
The activation factor was inactive: 1.1.

Which activation factor does the source give for COc1ccc(C(=O)NCC2(N3CCCCC3)CCCCC2)c(OC)c1OC here?
Its activation factor is inactive: 1.3.

Which activation factor does the source give for CCC(CO)(C(=O)OC1CN2CCC1CC2)c1ccccc1 (stereo not given) here?
The activation factor was inactive: 1.1.

With COc1cc(OC)cc(C(=O)NCC2(N3CCOCC3)CCCCC2)c1 as the compound, how does the activation factor read?
The activation factor was inactive: 1.

CCOc1ncccc1C(=O)NCC1(N2CCOCC2)CCCCC1 was tested. Which activation factor did it give?
Its activation factor is inactive: 1.

For CC(C)(C)OC(=O)N1CCC(Nc2ccccc2)CC1, which activation factor is on record?
The activation factor was inactive: 1.1.

For CCN1CCC(Nc2cccc(F)c2)CC1, which activation factor is on record?
The activation factor was inactive: 0.9.

How did the activation factor turn out when CN(C)c1ccc(C(=O)NCC2(N3CCCCC3)CCCCC2)cc1 was run?
Its activation factor is inactive: 1.1.

Which activation factor does the source give for Fc1ccccc1NC1CCN(Cc2ccccc2)CC1 here?
Its activation factor is inactive: 1.1.

How did the activation factor turn out when c1ccc(CN2CCC(Nc3ccccc3)CC2)cc1 was run?
The activation factor was inactive: 1.

N#Cc1ccc(C(=O)NCC2(N3CCCCC3)CCCCC2)cc1 was tested. Which activation factor did it give?
Its activation factor is inactive: 1.1.

With N/C(=N\O)c1c(N)no[n+]1[O-] as the compound, how does the activation factor read?
The activation factor was inactive: 0.9.

Which activation factor does the source give for O=C(OC1CN2CCC1CC2)C1c2ccccc2C=Cc2ccccc21 (stereo not given) here?
Its activation factor is inactive: 0.8.

With COc1ccc(C(=O)NCC2(N3CCOCC3)CCCCC2)cc1OC as the compound, how does the activation factor read?
The activation factor was inactive: 0.9.
